# Laboratory results: PubChem BioAssay AID1240 (Sanford-Burnham Center for Chemical Genomics, 2008)
# By UniProt entry, the sequences of proteins in these tests, tags left out.
# UniProt Q9HD36, whole entry: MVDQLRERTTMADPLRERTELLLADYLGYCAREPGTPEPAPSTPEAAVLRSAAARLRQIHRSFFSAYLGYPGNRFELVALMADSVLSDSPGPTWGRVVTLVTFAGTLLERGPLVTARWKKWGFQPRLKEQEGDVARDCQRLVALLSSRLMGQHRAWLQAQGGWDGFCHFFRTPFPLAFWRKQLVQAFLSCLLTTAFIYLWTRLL
# UniProt P22736, whole entry partner: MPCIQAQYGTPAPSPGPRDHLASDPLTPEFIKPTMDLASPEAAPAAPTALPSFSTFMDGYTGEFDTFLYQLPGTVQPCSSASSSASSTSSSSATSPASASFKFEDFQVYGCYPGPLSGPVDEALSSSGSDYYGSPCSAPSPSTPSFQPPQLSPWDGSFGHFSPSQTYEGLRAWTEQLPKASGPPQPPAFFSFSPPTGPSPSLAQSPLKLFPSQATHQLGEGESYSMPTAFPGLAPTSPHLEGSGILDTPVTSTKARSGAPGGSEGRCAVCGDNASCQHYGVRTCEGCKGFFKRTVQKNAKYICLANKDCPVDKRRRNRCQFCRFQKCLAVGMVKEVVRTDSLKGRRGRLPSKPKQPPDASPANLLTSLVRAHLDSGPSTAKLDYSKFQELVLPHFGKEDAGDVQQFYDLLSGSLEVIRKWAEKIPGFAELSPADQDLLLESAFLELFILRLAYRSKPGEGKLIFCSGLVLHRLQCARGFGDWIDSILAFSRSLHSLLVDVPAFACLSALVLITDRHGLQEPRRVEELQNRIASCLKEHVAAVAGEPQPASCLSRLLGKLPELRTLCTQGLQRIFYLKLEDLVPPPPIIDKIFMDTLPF
# The list shows a part of the results, in another mix than the full data. Some tests of the compounds listed are not included; inactive here does not mean inactive elsewhere.
# Biological target: Bcl-2-like protein 10 (Homo sapiens) (UniProt Q9HD36)
# Experiment: Phenotype converters, Bcl-B/TR3 peptide binding displacement, primary biochemical FP (AID 1240);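 note: 0% = Bcl-B with tracer peptide and DMSO and 100% = tracer peptide lacking Bcl-B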
# Conditions: GST-Bcl-B / FITC-TR3 peptide fluorescence polarization; stronger effect = higher value; compound at 3.75 mg/L
row,SMILES,displacement [%]
1,COc1ccc(OC)c(C=C(C#N)C#N)c1,3.6
